Patent US11428693B2, “Method of high throughput screening of chemical compounds suppressing nucleolar hypertrophy” (Baylor College of Medicine, priority 2017, dated 2022)

Tests used:
[1] = tested on: 4E-BP1 phosphorylation in HCT-15 cells
[2] = tested on: Normal Mouse Embryonal Fibroblast Cells
[3] = tested on: 4E-BP1 phosphorylation in SW1116 cells

CC(C)n1nc(-c2cc3cc(O)ccc3[nH]2)c2c(N)ncnc21 [pp242, 2-(4-amino-1-isopropyl-1H-pyrazolo[3,4-d]pyrimidin-3-yl)-1H-indol-5-ol]
4E-BP1 phosphorylation of Tr37, Tr46, Tr70 and Ser 65 [1]: inhibited | nucleoli hypertrophy (number of nucleoli per cell nucleus) [2]: reversion of nucleoli hypertrophy | nucleoli hypertrophy (number of nucleoli per cell nucleus) (MDA-MB-435 cells): complete reversion of nucleoli hypertrophy | nucleoli hypertrophy (number of nucleoli per cell nucleus) (AGS cells): reversion of nucleoli hypertrophy | 4E-BP1 phosphorylation of Tr37, Tr46, Tr70 and Ser 65 [3]: inhibited
